Consider five compounds from ChEMBL document CHEMBL2029250, “Total synthesis and dual PPARα/γ agonist effects of amorphastilbol and its synthetic derivatives” (Bioorg Med Chem Lett, 2012).

The experiment concerns the target T1, Peroxisome proliferator-activated receptor delta (Homo sapiens) (UniProt Q03181).
T1 sequence (whole entry): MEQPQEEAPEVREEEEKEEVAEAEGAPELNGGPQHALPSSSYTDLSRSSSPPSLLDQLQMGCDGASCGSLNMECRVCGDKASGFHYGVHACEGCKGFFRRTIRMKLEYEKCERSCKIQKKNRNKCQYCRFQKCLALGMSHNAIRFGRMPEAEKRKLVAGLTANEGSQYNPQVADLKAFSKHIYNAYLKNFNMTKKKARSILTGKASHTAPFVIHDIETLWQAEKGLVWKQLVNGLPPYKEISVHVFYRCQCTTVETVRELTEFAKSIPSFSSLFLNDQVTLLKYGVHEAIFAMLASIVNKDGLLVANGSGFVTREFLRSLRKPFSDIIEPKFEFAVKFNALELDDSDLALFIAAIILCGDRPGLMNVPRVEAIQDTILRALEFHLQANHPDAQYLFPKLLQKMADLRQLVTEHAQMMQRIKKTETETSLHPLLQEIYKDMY
Particulars: CV-1, 30 uM.
`CC(C)=CCC/C(C)=C/Cc1c(O)cc(/C=C/c2ccsc2)cc1O` showed an Emax of 24%.
For `CC(C)=CCC/C(C)=C/Cc1c(O)cc(/C=C/c2ccc(C=O)cc2)cc1O` the value was 7%; for `CC(C)=CCC/C(C)=C/Cc1c(O)cc(/C=C/c2ccc(C#N)cc2)cc1O`, 15%.
The value for `CC(C)=CCC/C(C)=C/Cc1c(O)cc(/C=C/c2ccccc2)cc1O` [AMORPHASTILBOL] was 21%; that for `COc1ccc(/C=C/c2cc(O)c(C/C=C(\C)CCC=C(C)C)c(O)c2)cc1` was 20%.
